Test results: patent publication US8460894B2, “Calcium-sensing receptor 2 (CaR2) and methods for using” (ABT Holding Company, priority 2002, dated 2013)

Biological target: T1, CaR2 (Homo sapiens, UniProt Q5T6X5, P91S)
T1 construct: molecular acquisition of the full-length cDNA led to the identification of the six coding exons; expressed in transfected cells
T1 sequence (Q5T6X5 19-926 P91S): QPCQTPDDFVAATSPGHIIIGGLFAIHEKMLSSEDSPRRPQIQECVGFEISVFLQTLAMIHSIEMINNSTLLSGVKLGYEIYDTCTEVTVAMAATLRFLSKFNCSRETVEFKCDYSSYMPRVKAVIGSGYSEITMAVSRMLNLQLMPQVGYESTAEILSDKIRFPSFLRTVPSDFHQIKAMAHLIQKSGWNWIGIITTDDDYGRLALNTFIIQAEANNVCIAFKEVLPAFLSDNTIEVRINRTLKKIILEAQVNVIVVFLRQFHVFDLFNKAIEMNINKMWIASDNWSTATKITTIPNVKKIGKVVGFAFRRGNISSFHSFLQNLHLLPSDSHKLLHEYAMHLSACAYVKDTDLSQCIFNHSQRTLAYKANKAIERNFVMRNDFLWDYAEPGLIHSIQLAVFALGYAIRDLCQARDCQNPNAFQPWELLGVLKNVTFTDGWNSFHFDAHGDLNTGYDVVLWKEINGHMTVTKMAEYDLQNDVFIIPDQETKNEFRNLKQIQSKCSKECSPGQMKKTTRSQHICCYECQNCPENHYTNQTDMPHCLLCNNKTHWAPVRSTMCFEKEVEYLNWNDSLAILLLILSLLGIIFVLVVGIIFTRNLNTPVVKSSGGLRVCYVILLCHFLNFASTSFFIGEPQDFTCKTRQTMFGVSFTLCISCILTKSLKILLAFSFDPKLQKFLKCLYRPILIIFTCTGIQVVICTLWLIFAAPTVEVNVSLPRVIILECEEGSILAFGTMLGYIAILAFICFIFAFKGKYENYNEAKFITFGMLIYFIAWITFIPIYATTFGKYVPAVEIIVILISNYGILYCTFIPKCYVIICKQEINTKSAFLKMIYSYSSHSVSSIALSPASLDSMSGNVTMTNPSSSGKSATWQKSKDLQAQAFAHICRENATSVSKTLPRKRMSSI
Assay: FLIPR intracellular Ca^++ assay in HEK293 clone expressing CaR2 (HEK-167B12-2.1)
Type: cell-based
Settings: either ligand (BMP-2 or CT) added alone, absence of calcium
Description: To facilitate pharmacological experimentation, CaR2 cDNA was cloned into the mammalian expression vector pcDNA 3.1 (+) Neo with or without a COOH-terminal FLAG epitope. The transgene was introduced into the HEK293 cell line and stable transfectants were identified. These clones were analyzed for CaR2 expression by qPCR and Western blotting to identify those clones that were suitable for ligand identification. The clone HEK-167B12-2.1 was chosen for further experimentation.
Based on the homology to the characterized goldfish odorant receptor 5.24, initial studies investigated the ability of 18 naturally occurring amino acids to trigger changes of intracellular Ca^++ levels in the transfected cells, as measured with a fluorescent imaging plate reader (FLIPR).
Intracellular Ca^++ was measured using a fluorometric imaging plate reader (FLIPR) [Molecular Devices]. Cells were seeded at a density of 1×10^5/well (96-well plate) or 1×10^4/well (384-well plate) in collagen coated plates and incubated overnight at 36.9° C. with 5% CO2. Medium was aspirated from the plates and replaced with equal volumes of a no wash calcium dye (Molecular Devices) and modified Hank's buffered saline solution [Ca^2+-free, Mg^2+-free] […] FLIPR was used to measure changes in intracellular calcium as relative fluorescence upon activation by ligand.

## BMP-2: bone morphogenic peptide, agent known to modulate bone metabolism
  intracellular Ca^++ in the CaR2 clone: not seen
